Data reported in patent US10058550B2, “Methods of treating heart failure” (priority 2015, dated 2018).

Tested on: heart failure rat model
Assay: Cardiac contractility in vivo in heart failure rat model (MI rat model)
Settings: male Lewis rats, heart failure by ligation of left descending coronary artery, ejection fraction <35%; dosed acutely for 30 min
Description: Male Lewis rats (Charles River, USA) at 2-3 months of age were used for the study. […] APJ agonists were administered dose dependently acutely for a period of 30 min.

COc1cccc(OC)c1-n1c(NS(=O)(=O)[C@@H](C)[C@H](O)c2ncc(C)cn2)nnc1-c1cncc(C)c1 [Example 371.0, (1R,2S)—N-(4-(2,6-dimethoxyphenyl)-5-(5-methylpyridin-3-yl)-4H-1,2,4-triazol-3-yl)-1-hydroxy-1-(5-methylpyrimidin-2-yl)propane-2-sulfonamide]
cardiac contractility as measured by dP/dtmax (derivative of left ventricular pressure): increase in cardiac contractility
